Laboratory results from ChEMBL document CHEMBL4425100, “Design, Synthesis, and Evaluation of in Vitro and in Vivo Anticancer Activity of 4-Substituted Coumarins: A Novel Class of Potent Tubulin Polymerization Inhibitors” (J Med Chem, 2016).
pIC50: −log10 of the molar value.

Key:
A2780S [1] = conditions: Homo sapiens, 24 h
A2780S [2] = conditions: Mus musculus, iv, read-out: TGI

pIC50 (A2780S [1]) | SMILES | inhibition in vivo at 30 mg/kg (A2780S [2]) [%]
7.65 | CC[C@]1(O)C[C@@H]2CN(CCc3c([nH]c4ccccc34)[C@@](C(=O)OC)(c3cc4c(cc3OC)N(C)[C@H]3[C@@](O)(C(=O)OC)[C@H](OC(C)=O)[C@]5(CC)C=CCN6CC[C@]43[C@@H]65)C2)C1 [VINBLASTINE] | –
7.24 | CC(=O)O[C@H]1C(=O)[C@@]2(C)[C@H]([C@H](OC(=O)c3ccccc3)[C@]3(O)C[C@H](OC(=O)[C@H](O)[C@@H](NC(=O)c4ccccc4)c4ccccc4)C(C)=C1C3(C)C)[C@]1(OC(C)=O)CO[C@@H]1C[C@@H]2O [PACLITAXEL] | 82.9
